Test results taken from ChEMBL document CHEMBL5727895, “Nitrogen-containing heteroaryl compound and pharmaceutical use thereof” (2020).

Assay: Evaluation of GLUT9 Inhibitory Activity: Uricase/Hyper transiently-transfected human GLUT9 stably expressing cells or mock cells (blank) were seeded in a 96 well plate (Corning) at 1.6×10^5 cells/well, and cultured overnight at 37° C., 5% CO2. D-MEM/high glucose (Wako Pure Chemical Industries, Ltd.) containing 10% Fetal Bovine Serum (Lifetechnology) and 100 units/ml penicillin/100 μg/ml streptomycin (GIBCO) was used as a medium. High K− buffer (129.8 mM KCl, 1.2 mM KH2PO4, 1.2 mM MgSO4.7H2O, 1.3 mM CaCl2. 2H2O, 25 mM HEPES, pH 7.4 with 1 M Tris) and the medium were mixed in equal amount to prepare Assay Buffer. The medium in each well was removed, and the test compound solution (final 1% DMSO) diluted with Assay Buffer was added thereto at 50 μl/well, and the mixture was left stand at room temperature for 30 to 60 min. For the solvent control and blank, Assay Buffer containing DMSO alone was added at 50 μl/well, and the mixture was left stand at room temperature for 30 to 60 min. In addition, uric acid solution (containing [14C]uric acid as a tracer) diluted with Assay Buffer was added to each well at 15 μl/well (final 300 μM uric acid), and the uptake reaction was performed at room temperature for 6 min. […]

COc1ccc(-c2ncc([C@H]3CC[C@H](OC)CC3)cc2-c2ccc(C(=O)O)cc2)cc1
IC50: 10 µM
